The source of these data is ChEMBL document CHEMBL1155471, “Discovery of potent, balanced and orally active dual NK1/NK3 receptor ligands” (Bioorg Med Chem Lett, 2010).

Chains of the proteins cited; added tags and fusions are not shown.
UniProt P25103, whole entry: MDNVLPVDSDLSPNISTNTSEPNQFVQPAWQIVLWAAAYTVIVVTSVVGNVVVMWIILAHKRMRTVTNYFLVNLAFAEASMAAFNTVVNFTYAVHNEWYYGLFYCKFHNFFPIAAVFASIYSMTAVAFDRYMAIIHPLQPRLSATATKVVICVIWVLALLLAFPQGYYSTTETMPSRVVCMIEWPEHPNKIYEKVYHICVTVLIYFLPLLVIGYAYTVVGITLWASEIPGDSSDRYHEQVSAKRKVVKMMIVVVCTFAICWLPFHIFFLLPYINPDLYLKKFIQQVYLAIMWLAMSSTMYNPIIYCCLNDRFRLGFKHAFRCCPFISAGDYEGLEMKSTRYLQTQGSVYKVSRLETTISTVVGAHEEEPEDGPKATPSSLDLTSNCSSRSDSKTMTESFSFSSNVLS

This assay addresses Substance-P receptor (Homo sapiens, UniProt P25103). Put plainly: Displacement of [3H]substance P from human NK1 receptor expressed in CHO cells. The class given is cell-based. On the technique in general: In a radioligand displacement assay an active substance lowers the binding of a labelled ligand.

Molecules are shown by their SMILES.

What is called Ki is the dissociation constant of the complex between target and ligand, obtained from inhibition or displacement. The low end stands for tighter binding, the high end for weaker binding. The compound `CN(C(=O)C(C)(C)c1cc(C(F)(F)F)cc(C(F)(F)F)c1)c1cnc(N2C[C@H](O)C[C@H]2CO)cc1-c1ccccc1Cl` came in with a Ki of 0.61 nM.
Under `CN(C(=O)C(C)(C)c1cc(C(F)(F)F)cc(C(F)(F)F)c1)c1cnc(N2C[C@@H](O)C[C@H]2CO)cc1-c1ccccc1Cl` stands 0.51 nM.
